From patent publication US11464832B2, “Composition for treating or sensitizing interferon beta resistant cancer disease comprising cFLIP siRNA” (ABION INC., priority 2016, dated 2022)

How the values were obtained:
Assay in all cases: WST cell viability, siRNA with Carbiferon, ACFP or Herceptin
Type in all cases: cell-based
Conditions in all cases: compared with cells normally responding to IFNβ, data not shown
[1] = test system: SNU-216 cell line (gastric cancer cells)
Experimental: (§1) In order to investigate cell apoptotic ability by co-treatment of the selected cFLIP siRNAs together and Carbiferon or ACFP, SK-OV-3, SNU-216, and NCI-N87 cells were dispensed at 1×10^4 cells/well in a 24-well plate, and incubated at 37.5° C. in a 5% CO2 environment for 24 hours. ACFP is a fusion protein in which Carbiferon (R27T) is fused to a terminus of the heavy chain of Herceptin. After 24 hours, the cell culture was removed, and 10 nM siRNA was mixed with Dharmafect transfection reagent, and the cells were treated with the mixture after the incubation at room temperature for 15 minutes. After 24-hour treatment, the culture was removed, and the cells were treated with 100 ng/ml of Carbiferon, ACFP, and Herceptin and additionally incubated for 48 hours. Thereafter, the culture was removed, followed by washing three times with PBS. Then, WST reagent was mixed with the culture at 1:10, and each well were treated with the mixture, and incubated at 37.5° C. in a 5% CO2 atmosphere for 2 hours. The absorbance was measured at a wavelength of 430 nm.

[2] = test system: SK-OV-3 cell line (ovarian cancer cells)
Experimental: as §1

[3] = test system: NCI-N87 cell line (gastric cancer cells)
Experimental: as §1

B1: IFNβ: interferon-beta, Type 1 interferon, spherical protein of 22 kDa (protein)
chain: MSYNLLGFLQRSSNFQCQKLLWQLNGRLEYCLKDRMNFDIPEEIKQLQQFQKEDAALTIYEMLQNIFAIFRQDSSSTGWNETIVENLLANVYHQINHLKTVLEEKLEKEDFTRGKLMSSLHLKRYYGRILHYLKAKEYSHCAWTIVRVEILRNFYFINRLTGYLRN
modifications: Human Interferon-beta
notes: interferon-beta, Type 1 interferon, spherical protein of 22 kDa
response of the cell line to IFNβ [1]: do not respond to IFNβ at all | response of the cell line to IFNβ [2]: very low sensitivity | response of the cell line to IFNβ [3]: very low sensitivity
